Laboratory results: patent publication US6878716B1, “Compounds specific to adenosine A1 receptor and uses thereof” (OSI Pharmaceuticals, Inc., priority 1998, dated 2005)

Sequences of proteins named here, by UniProt entry; tags and fusion partners are left off.
UniProt P30542, whole entry: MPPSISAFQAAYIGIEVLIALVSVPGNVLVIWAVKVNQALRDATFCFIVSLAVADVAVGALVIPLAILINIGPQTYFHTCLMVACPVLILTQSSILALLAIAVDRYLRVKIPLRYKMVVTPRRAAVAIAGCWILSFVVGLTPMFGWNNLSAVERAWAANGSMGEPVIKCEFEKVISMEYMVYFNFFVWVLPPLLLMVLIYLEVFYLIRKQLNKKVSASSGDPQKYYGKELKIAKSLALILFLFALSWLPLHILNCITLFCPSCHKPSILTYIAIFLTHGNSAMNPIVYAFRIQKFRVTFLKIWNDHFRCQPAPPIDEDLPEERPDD

Biological target: A1 adenosine receptor (Homo sapiens, UniProt P30542)
Experiment: fus1-LacZ β-galactosidase assay in yeast expressing human A1 adenosine receptor
Conditions: NECA concentration 10^−8 M

CCNC(=O)[C@H]1O[C@@H](n2cnc3c(N)ncnc32)[C@H](O)[C@@H]1O
stimulation of β-galactosidase activity: approximately 2 fold
